# In PMC3105092, “Biochemical Comparison of Anopheles gambiae and Human NADPH P450 Reductases Reveals Different 2′-5′-ADP and FMN Binding Traits” (PLoS ONE, 2011):
# Where “and” joins values, the source holds several entries; their conditions need not be identical. Equal values may be shown once.
# Test system: nicotinamide adenine dinucleotide phosphate, reduced form
# Test: purified protein, by the assay type
# Settings: pH 7.7; 25.0 °C
substance,measurement,value
AgCPR (Anopheles gambiae),Km,30.0 µM and 12.4 µM
